Among the data in article PMC7190841 (Scientific Reports, 2020) are EC50 values, retold here.

Chains of the proteins cited; added tags and fusions are not shown. Residues count along the entry.
UniProt P24062, 742-1370 partner limits assumed: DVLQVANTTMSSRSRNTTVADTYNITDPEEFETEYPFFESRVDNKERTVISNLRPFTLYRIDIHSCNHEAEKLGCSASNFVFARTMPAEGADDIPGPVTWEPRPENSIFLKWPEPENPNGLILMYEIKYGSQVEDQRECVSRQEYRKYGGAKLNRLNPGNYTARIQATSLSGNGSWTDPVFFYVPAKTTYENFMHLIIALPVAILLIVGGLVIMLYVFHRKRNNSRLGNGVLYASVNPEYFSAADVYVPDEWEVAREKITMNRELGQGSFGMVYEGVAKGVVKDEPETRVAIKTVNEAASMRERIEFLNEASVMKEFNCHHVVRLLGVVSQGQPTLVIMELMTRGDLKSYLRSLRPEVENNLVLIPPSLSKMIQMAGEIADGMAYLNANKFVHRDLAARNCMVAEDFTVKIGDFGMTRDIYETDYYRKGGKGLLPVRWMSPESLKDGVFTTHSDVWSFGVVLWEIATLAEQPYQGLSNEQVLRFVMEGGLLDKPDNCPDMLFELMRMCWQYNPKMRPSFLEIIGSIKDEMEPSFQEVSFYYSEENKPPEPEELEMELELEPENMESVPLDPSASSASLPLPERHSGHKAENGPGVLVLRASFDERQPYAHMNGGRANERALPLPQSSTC
UniProt P24062, 31-737 limits assumed: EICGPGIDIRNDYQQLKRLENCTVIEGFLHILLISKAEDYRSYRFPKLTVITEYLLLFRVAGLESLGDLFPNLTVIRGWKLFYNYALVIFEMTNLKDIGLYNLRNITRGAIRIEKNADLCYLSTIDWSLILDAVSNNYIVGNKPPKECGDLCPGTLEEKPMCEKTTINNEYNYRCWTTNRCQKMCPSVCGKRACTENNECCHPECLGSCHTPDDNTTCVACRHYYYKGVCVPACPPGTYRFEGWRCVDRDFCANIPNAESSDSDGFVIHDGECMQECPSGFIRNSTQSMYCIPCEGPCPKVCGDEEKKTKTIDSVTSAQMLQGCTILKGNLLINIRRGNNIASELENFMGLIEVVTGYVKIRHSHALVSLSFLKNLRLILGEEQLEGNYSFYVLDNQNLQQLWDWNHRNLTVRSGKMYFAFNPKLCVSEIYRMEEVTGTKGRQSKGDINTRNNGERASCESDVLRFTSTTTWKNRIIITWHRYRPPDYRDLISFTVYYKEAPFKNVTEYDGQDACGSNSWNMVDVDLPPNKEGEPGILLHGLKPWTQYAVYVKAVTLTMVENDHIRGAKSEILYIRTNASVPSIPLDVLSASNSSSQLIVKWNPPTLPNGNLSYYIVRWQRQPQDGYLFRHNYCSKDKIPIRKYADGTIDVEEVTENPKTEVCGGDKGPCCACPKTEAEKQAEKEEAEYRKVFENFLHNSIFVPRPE

The target of this assay is T1, P-IGF-1R (Rattus norvegicus, UniProt P24062).
T1 construct: L6hIR cells were seeded in 12-well plates; endogenous in cells; host or cells: L6hIR cells (rat L6 myoblasts)
Kind of assay: Activation of IGF-1R in L6hIR cells in vitro, sandwich ELISA. The class given is cell-based. As to conditions: ligands 0-1000 nM for 30 min, 0.1% human serum albumin, three replicates.

With human insulin [HI], a half-maximal response (EC50) required 2140 nM.
